Measured values published in ChEMBL document CHEMBL4342404, “Anti-cholinesterase hybrids as multi-target-directed ligands against Alzheimer's disease (1998-2018)” (Bioorg Med Chem, 2019).

Amino acid sequences for entries named in this document (tags omitted).
UniProt P06276, whole entry: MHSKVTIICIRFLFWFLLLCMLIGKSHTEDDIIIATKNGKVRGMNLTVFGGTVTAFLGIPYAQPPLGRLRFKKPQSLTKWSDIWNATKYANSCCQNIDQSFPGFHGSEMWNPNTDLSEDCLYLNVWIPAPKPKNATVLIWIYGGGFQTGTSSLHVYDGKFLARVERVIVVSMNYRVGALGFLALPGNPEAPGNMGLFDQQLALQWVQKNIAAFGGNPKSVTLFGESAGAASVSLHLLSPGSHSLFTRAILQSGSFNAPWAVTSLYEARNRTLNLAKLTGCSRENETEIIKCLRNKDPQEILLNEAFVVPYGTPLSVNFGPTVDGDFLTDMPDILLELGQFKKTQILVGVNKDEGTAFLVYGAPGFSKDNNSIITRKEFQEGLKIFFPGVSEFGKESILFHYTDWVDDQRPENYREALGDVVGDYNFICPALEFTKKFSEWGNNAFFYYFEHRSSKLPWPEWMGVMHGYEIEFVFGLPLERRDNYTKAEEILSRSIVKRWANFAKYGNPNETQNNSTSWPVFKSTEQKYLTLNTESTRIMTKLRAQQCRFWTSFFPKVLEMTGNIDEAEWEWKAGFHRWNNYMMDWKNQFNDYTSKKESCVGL

Molecular target: Cholinesterase (Homo sapiens, UniProt P06276)

Q: `CCN(C)C(=O)Oc1cccc([C@H](C)N(C)C)c1` [RIVASTIGMINE] was tested. Which IC50 did it give?
A: 9.12 µM
